# Target: GST-Bcl-2 (Homo sapiens (Human), UniProt P10415)
# The chains behind the UniProt entries cited, without tags or fusion partners.
# UniProt P10415, whole entry: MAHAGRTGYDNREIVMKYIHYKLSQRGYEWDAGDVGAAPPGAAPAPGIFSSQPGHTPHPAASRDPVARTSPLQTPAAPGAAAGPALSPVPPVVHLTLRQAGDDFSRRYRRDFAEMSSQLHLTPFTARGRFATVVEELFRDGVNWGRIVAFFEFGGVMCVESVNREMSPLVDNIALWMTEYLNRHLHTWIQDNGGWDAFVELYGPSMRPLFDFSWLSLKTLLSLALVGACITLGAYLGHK
# Experiment: Time Resolved-Fluorescence Resonance Energy Transfer (TR-FRET) Bcl-2 binding assay
# Conditions: GST-Bcl-2 1 nM, F-Bak peptide probe 100 nM, Tb-anti-GST antibody 1 nM; 3 hours at room temperature; Ki by Wang's equation
substance,measurement,value
"2-(3-chlorophenoxy)-4-(4-{[2-(4-chlorophenyl)-4,4-dimethylcyclohex-1-en-1-yl]methyl}piperazin-1-yl)-N-{[4-{1-[2-(2-methoxyethoxyl)ethyl]piperidin-4-yl}amino)-3-nitrophenyl]sulfonyl}benzamide [Example 170]",Ki,36 pM
